{"source": "paper PMC7522491", "about": "“Gut microbiota impairs insulin clearance in obese mice” (Molecular Metabolism, 2020)", "origin": "cited, not measured here"}
{"substance": "insulin", "values": [{"measurement": "insulin depleted from the blood by hepatic uptake and degradation during first-pass insulin clearance", "result": "50–80%"}]}
